# Laboratory results reported in paper PMC2918654 (Bioorganic & medicinal chemistry, 2010).
# Target: δ-opioid receptors (Rattus norvegicus, UniProt P33533)
# Assay: Competitive binding assay, δ-opioid receptors, [3H]deltorphin II
# Design: species or system Sprague-Dawley rats
# Settings: read-out: KD of radioligand; radioligand for δ-opioid receptors, 45.0 Ci/mmol
substance,measurement,value
H-Tyr-D-Ala-Phe-Asp-Val-Val-Gly-NH2 (YAFDVVG) [[^3H]deltorphin II],Kd,1.4 nM
